{"sequences": {"note": "Amino acid sequences for entries named in this document (tags omitted). A change or cut given only in a name is not applied to a line headed by its entry.", "UniProt Q9HC16": "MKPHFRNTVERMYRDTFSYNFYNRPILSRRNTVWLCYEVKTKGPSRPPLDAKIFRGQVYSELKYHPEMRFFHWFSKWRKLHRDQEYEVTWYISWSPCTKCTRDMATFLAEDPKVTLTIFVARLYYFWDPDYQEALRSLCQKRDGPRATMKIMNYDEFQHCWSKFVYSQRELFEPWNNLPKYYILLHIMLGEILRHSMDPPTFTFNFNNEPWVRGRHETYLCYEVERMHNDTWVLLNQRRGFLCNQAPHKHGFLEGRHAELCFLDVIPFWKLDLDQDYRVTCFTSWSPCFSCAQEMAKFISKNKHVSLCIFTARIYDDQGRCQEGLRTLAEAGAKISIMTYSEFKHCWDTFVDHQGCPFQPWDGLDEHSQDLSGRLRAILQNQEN"}, "source": "PubChem BioAssay AID588379", "about": "(National Center for Advancing Translational Sciences (NCATS), 2011)", "note": "Values joined by “and” are separate entries in the source; they are usually repeats but may differ in a detail not shown here. Equal entries are not always repeated. Only a part is listed here, and it is no random draw. Active and inactive are the calls of the source. Calls come from the whole dose curve; as a rule, active = well fitted inhibition curve with a large enough effect; inconclusive = small, poorly fitted or top-dose-only effect; inactive = flat fitted curve, though single readings scatter."}
{"target": "DNA dC->dU-editing enzyme APOBEC-3G (Homo sapiens) (UniProt Q9HC16)", "assay": "qHTS for inhibitors of Vif-A3G interactions: Validation; note: 0% is about no effect", "conditions": "Vif-A3G protein interaction assay; at 46.1 µM (top of the series)", "text": "The recent discovery and characterization of host restriction factors, which provide a potent defense to invading retroviruses, has provided new targets for antiviral drug development. APOBEC3G (A3G) and APOBEC3F (A3F) are potent cytidine deaminases that block HIV-1 replication; HIV-1 expresses the Vif protein, which counteracts A3G and A3F by binding to them and inducing their proteasomal degradation.\nThe Vif-A3G and Vif-A3F interactions provide two potential targets for development of small molecules which can interfere with the ability of Vif to degrade A3G or A3F. […] To identify inhibitors that can interfere with Vif mediated degradation of A3G and A3F, we have developed Hela cell lines that stably express A3G or A3F tagged with eYFP at the C-terminal end (A3G-eYFP or A3F-eYFP, respectively) and Vif. In the absence of an inhibitor, Vif induces degradation of A3G-eYFP and A3F-eYFP, and the cells are not fluorescent. In the presence of an inhibitor, it is expected that Vif will be unable to degrade A3G-eYFP and/or A3F-eYFP, resulting in an increase in yellow fluorescence. In this assays Vif A3G was screened against the Molecular Library Small Molecile Repository (MLSMR). […]\n5 uL of 700 cells/well of A3G-YFP cells are dispensed into black, clear bottom plates. […] The plates are incubated overnight at 37 deg C and then read on the TTP Acumen (Ex 488/ Em 500-530)."}
{"smiles": "CN(C(=O)Cc1ccc(Cl)c(Cl)c1)[C@H]1CCCC[C@@H]1N1CCCC1", "activity change, negative = inhibition": "inactive: 5.24% and inactive: 3.93% and inactive: -11%"}
